This note sets out measurements from PubChem BioAssay (Tox21).

By UniProt entry, the sequences of proteins in these tests, tags left out. Where a name states a change or a piece, a line headed by the entry shows the natural chain unless it says otherwise.
UniProt Q92731, whole entry, looked up: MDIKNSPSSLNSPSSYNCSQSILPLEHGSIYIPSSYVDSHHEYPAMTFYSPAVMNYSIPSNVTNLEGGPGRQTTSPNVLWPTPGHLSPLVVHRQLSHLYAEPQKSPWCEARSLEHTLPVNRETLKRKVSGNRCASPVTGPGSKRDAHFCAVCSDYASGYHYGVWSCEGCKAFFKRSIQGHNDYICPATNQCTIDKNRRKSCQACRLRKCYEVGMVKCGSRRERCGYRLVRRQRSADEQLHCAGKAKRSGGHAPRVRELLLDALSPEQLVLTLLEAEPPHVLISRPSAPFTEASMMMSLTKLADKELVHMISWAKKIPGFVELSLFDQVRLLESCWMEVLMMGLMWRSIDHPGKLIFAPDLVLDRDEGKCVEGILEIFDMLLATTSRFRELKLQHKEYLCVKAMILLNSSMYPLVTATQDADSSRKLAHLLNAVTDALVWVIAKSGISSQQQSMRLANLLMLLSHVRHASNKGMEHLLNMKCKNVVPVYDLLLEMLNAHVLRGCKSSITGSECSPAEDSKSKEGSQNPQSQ
UniProt P03372, whole entry, looked up: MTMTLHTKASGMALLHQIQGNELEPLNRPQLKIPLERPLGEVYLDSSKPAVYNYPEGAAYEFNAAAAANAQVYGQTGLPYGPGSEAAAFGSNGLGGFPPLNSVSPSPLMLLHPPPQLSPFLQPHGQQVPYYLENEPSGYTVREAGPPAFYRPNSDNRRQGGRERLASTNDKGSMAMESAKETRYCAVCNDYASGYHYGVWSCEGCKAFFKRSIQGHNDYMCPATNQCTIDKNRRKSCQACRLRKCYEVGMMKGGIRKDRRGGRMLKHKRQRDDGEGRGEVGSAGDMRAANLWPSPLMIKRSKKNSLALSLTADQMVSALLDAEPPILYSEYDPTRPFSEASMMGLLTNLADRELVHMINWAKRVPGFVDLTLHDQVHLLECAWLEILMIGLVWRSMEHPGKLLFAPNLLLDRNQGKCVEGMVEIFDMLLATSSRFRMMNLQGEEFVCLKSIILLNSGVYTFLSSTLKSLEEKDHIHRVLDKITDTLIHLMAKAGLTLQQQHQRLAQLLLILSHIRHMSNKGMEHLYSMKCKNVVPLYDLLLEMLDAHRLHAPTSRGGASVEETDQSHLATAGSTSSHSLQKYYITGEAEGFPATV
UniProt Q96RI1: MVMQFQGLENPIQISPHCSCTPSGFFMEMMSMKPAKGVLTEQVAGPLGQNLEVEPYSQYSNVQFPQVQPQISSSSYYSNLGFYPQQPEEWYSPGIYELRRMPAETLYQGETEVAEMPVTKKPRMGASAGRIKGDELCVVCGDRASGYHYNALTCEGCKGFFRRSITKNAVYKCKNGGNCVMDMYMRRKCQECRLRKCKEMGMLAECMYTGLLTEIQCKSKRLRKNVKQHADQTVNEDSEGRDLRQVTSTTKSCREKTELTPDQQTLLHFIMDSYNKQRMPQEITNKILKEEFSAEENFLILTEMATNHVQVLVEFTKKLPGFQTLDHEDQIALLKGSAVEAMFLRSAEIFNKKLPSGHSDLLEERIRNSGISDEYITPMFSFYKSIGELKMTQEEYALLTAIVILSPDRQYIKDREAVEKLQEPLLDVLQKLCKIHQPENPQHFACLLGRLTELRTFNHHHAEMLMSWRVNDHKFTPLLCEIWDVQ

Test [1] is described as follows: qHTS assay to identify small molecule agonists of the NFkB signaling pathway (AID 1159509; active = well fitted curve in the direction sought with a large enough effect in the signal ratio in the repeat runs, not every such curve was filed as active; the % refers to the signal ratio). The conditions noted are these: NFkB-bla ME-180 cells, beta-lactamase FRET ratio, 5 h. The gist of the method:
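After overnight attachment, reporter cells received test compounds, DMSO or positive controls and were incubated 5 hr at 37 C. FRET substrate was then added for 1.5 hr at room temperature before dual-emission fluorescence reading.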

Test [2] is described as follows: qHTS assay to identify small molecule antagonists of the retinoic acid receptor (RAR) signaling pathway (AID 1159552; also: nearly all actives have a fitted effect of over 50% in size; also: potency is read from the fitted curve at half-maximal effect). The conditions noted are these: C3RL4 RARE luciferase reporter, retinol-stimulated, 6 h; series mostly up to 92.4 µM. The gist of the method: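 Using a RARE-driven luciferase construct in C3RL4 cells, retinol at 1 uM final provided the agonist stimulus while compounds were co-applied. After 6 hours at 37 C, luminescence was recorded to flag inhibitors of retinol signaling.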

For test [3], the target named is Estrogen receptor beta (Homo sapiens) (UniProt Q92731). In words: qHTS assay to identify small molecule antagonists of the estrogen receptor beta (ER-beta) signaling pathway (AID 1259378; active = well fitted inhibition curve with a large enough effect in the signal ratio in the repeat runs, not every such curve was filed as active; the % refers to the signal ratio; also: potency is read from the fitted curve at half-maximal effect). The conditions noted are these: ER-beta-UAS-bla HEK293T, beta-lactamase FRET ratio, 16 h; series mostly up to 92.4 µM. The gist of the method:
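ER-beta-UAS-bla HEK293T cells in 2% charcoal-stripped FBS medium treated with compound plus 1nM final 17-beta-estradiol for 16 hr at 37C. Beta-lactamase reporter read by FRET substrate fluorescence after 2 hours at room temperature.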

Test [4] deals with Estrogen receptor (Homo sapiens) (UniProt P03372). In words: qHTS assay to identify small molecule agonists of the estrogen receptor alpha (ER-alpha) signaling pathway using the BG1 cell line (AID 743079). Also: nearly all actives have a fitted effect of over 20% in size. The conditions noted are these: BG1Luc4E2 cells, ERE-luciferase agonist, 22 h; at 70.3 µM (top of the series).
Test [5] has the same target. In words: qHTS assay to identify small molecule agonists of the estrogen receptor alpha (ER-alpha) signaling pathway in the presence of an antagonist (AID 1259383; calls by dose curve; also: top concentration of the series differs between compounds; nearly all actives have a fitted effect of over 15% in size). The conditions noted are these: VM7Luc4E2 cells, ERE-luciferase, +ICI-182,780, 22 h.
In test [6] the target is Nuclear receptor subfamily 1 group I member 2 (Homo sapiens) (UniProt O75469). Briefly: Human pregnane X receptor (PXR) small molecule agonists, qHTS assay (AID 1346982). Also: nearly all actives have a fitted effect of over 35% in size. The conditions noted are these: PXR-Luc HepG2, CYP3A4 luciferase reporter, 24 h; series mostly up to 92.4 µM. The gist of the method: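 We seeded PXR-Luc HepG2 cells in assay medium containing 5% charcoal-stripped FBS, added compounds 5 hr later, incubated 24 hr, and read luminescence with ONE-Glo reagent.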

The target is the same in test [7]. Briefly: CYP3A4 induction through human pregnane X receptor (PXR) by small molecules, qHTS assay (AID 1346984). Also: nearly all actives have a fitted effect of over 40% in size. The conditions noted are these: DPX-2 HepG2 PXR, CYP3A4-luciferin luminescence, 24 h; series mostly up to 46.1 µM. The gist of the method: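 qHTS, concentration-response format: HepG2 DPX-2 line, PXR/CYP3A4-luc. Exposure 24 h, 37C. Substrate Luciferin-IPA 3uM final, 3 h. Detection One-Glo, 30 min RT.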

Test [8] shares this target. In words: Human pregnane X receptor (PXR) activation by small molecules, qHTS assay (AID 1346985). Also: nearly all actives have a fitted effect of over 40% in size. The conditions noted are these: DPX-2 HepG2 CYP3A4-luciferase, 24 h; series mostly up to 38.3 µM.
Test [9] has as its target Estrogen receptor (Homo sapiens) (UniProt P03372). Briefly: qHTS assay to identify small molecule antagonists of the estrogen receptor alpha (ER-alpha) signaling pathway (AID 743069; active = well fitted curve in the direction sought with a large enough effect in the signal ratio in the repeat runs, not every such curve was filed as active; the % refers to the signal ratio). The conditions noted are these: HEK293 ER-alpha-UAS-bla, beta-lactamase ratio, antagonist mode; at 69.4 µM (top of the series).
The target is the same in test [10]. In words: qHTS assay to identify small molecule agonists of the estrogen receptor alpha (ER-alpha) signaling pathway (AID 743075; calls by dose curve;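 also: HEK293 GripTite cells with ER-alpha and UAS-driven beta-lactamase reporter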). The conditions noted are these: HEK293 ER-alpha-UAS-bla, beta-lactamase FRET ratio, 18 h; series mostly up to 70.1 µM.
For test [11], the target named is Bile acid receptor (Homo sapiens) (UniProt Q96RI1). In words: qHTS assay to identify small molecule antagonists of the farnesoid-X-receptor (FXR) signaling pathway (AID 743217; active = well fitted inhibition curve with a large enough effect in the signal ratio in the repeat runs, not every such curve was filed as active; the % refers to the signal ratio). The conditions noted are these: HEK293T FXR-UAS-bla, beta-lactamase ratio, CDCA-stimulated, 16 h; at 81.1 µM (top of the series) unless noted. The gist of the method: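 In this cell-based antagonist screen, inhibition of CDCA-driven (50 uM final) UAS-beta-lactamase expression in HEK 293T cells was measured by FRET fluorescence following 16 h compound exposure at 37 °C.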

For test [12] the target is unchanged. Briefly: qHTS assay to identify small molecule agonists of the farnesoid-X-receptor (FXR) signaling pathway (AID 743220; active = well fitted activation curve with a large enough effect in the signal ratio in the repeat runs, not every such curve was filed as active; the % refers to the signal ratio). The conditions noted are these: HEK293T FXR-UAS-bla, beta-lactamase FRET ratio, 16 h; at 62.6 µM (top of the series) unless noted.
Test [13] addresses Estrogen receptor (Homo sapiens) (UniProt P03372). Briefly: qHTS assay to identify small molecule antagonists of the estrogen receptor alpha (ER-alpha) signaling pathway using the BG1 cell line in the presence of 0.1 nM 17-beta-estradiol (AID 1259244). Also: nearly all actives have a fitted effect of over 50% in size. Also: potency is read from the fitted curve at half-maximal effect. The conditions noted are these: VM7Luc4E2 (BG1) ERE-luciferase, antagonist mode, 0.1 nM E2, 22 h; series mostly up to 92.4 µM.

Several values for one entry are separate records, joined by “and”; a condition that tells them apart may be missing. Equal entries are not always repeated. For some of these results: This list holds what a sample rich in hits left over. Results filed as inconclusive are left out. The entries are a selection whose mix differs from that of the whole data set. Where a structure was tested more than once in an assay, its records may differ in their call. Activity calls are given as the source filed them. Unless noted, calls follow the shape of the dose curve; as a rule, active = well fitted curve in the direction sought with a large enough effect in the repeat runs; inconclusive = weak or mixed curves; inactive = no such curve, though single readings can be large; an effect the other way counts as inactive or inconclusive.
% is scaled to controls: 0 for no effect and ±100 for the full control effect.

For the molecule `C[N+]1(CCC(C(N)=O)(c2ccccc2)c2ccccc2)CCCCC1`, in test [1] (at 61 µM (top of the series)), the activation was inactive: 0.134%. Moreover, the Potency entry in test [2] and in test [3] was “inactive” each time.
For the molecule `CCCCCCCCCCCCCCCC[N+](C)(C)C`, the activation in [1] (at 61 µM (top of the series)) was inactive: -0.0451%.
As for `O=C1C[C@@H]2OCC=C3CN4CC[C@]56c7ccccc7N1[C@H]5[C@H]2[C@H]3C[C@H]46`, the activation in [1] (at 61 µM (top of the series)) is inactive: 0.497%.
For `COc1ccc(N)cc1N`, the activation in [4] was inactive: -8.89%; in [1] (at 61 µM (top of the series)), inactive: 0.126%; in test [1] (at 78.8 µM (top of the series)) it was inactive: 0.257%; in [5] (at 42.5 µM (top of the series)) it was inactive: 0.305%; in test [5] (at 92.4 µM (top of the series)), inactive: -13.5%. For the same molecule, in test [2], the Potency is active: 31.6 µM and inactive.
Take `C[N+](C)(C)CCOC(=O)C(O)(c1ccccc1)c1ccccc1`: the activation in test [1] (at 61 µM (top of the series)) is inactive: 0.175%. Besides, the Potency result in test [2] is “inactive”.
Turning to `CC[N+](CC)(CC)CC`, the activation in test [1] (at 61 µM (top of the series)) was inactive: -0.382%. In addition, the Potency result in test [2], in test [3], in [6], in test [7] and in [8] was “inactive” throughout.
In the case of `C[N+]12CCC(CC1)C(OC(=O)C(O)(c1ccccc1)c1ccccc1)C2` (stereo not given), the Potency entry in test [2] is “inactive”.
Take `O=C1NC(=O)C(=O)C(=O)N1`: the activation in test [1] (at 78.8 µM (top of the series)) is inactive: 0.0126%. Moreover, the Potency entry in test [2] was “inactive”.
As for `C[N+](C)(C)CCCCCCCCCC[N+](C)(C)C`, in test [2], the Potency entry was “inactive”.
`Cc1ncc(C[n+]2csc(CCO)c2C)c(N)n1`: the activation in test [1] (at 61 µM (top of the series)) is inactive: -0.473%. The Potency result in test [6] and in test [7] was “inactive” each time.
In the case of `CC[n+]1c(-c2ccccc2)c2cc(N)ccc2c2ccc(N)cc21`, the Potency in [2] is active: 24.2 µM and active: 26.6 µM; in [3] it was active: 17.1 µM and active: 2.66 µM.
`CN1CC[C@]23c4c5ccc(O)c4O[C@H]2[C@@H](O)C=C[C@H]3[C@H]1C5`: the activity, negative = inhibition in test [9] is inactive: -11.9%. For the same molecule, the Potency entry in test [10], in test [2], in test [13] and in test [3] was “inactive” in each case. In addition, the activation was inactive: -5.26% in [4], inactive: -3.29% [at 81.1 µM] in test [12] and inactive: -0.707% in test [5] (at 92.4 µM (top of the series)). For the same molecule, the activity change, negative = inhibition in test [11] was inactive: -3.9%.
In the case of `CCCC[n+]1ccc(C)cc1`, the Potency result in [2] is “inactive and active: 54.2 µM”.
In the case of `C[N+](C)(C)C`, the Potency entry in test [2] and in test [3] was “inactive” each time.
On to `O=P1(N(CCCl)CCCl)NCCCO1` (stereo not given), for which the activation was inactive: 0.0396% and inactive: 0.527% in test [1] (at 61 µM (top of the series)); inactive: -0.518% in test [1] (at 78.8 µM (top of the series)). For the same molecule, in [3], the Potency result was “inactive”.
For the molecule `CCOP(=O)(O)C(N)=O`, in [2], the Potency entry was “inactive”.
For `CC[n+]1ccccc1`, in test [9], the activity, negative = inhibition was inactive: -2.52% [middle of 4 runs]. Besides, the Potency entry in test [10] was “inactive”. Also, the activation is inactive: -0.378% [middle of 5 runs] in test [1] (at 61 µM (top of the series)) and inactive: 0.317% [middle of 5 runs] in [5] (at 92.4 µM (top of the series)). Further, the Potency entry in test [2] is “inactive and active: 54 µM”; in test [13] it was “inactive and active: 8.56 µM”.
On to `CC[N+]1(CC)CCC(OC(=O)C(O)(c2ccccc2)c2ccccc2)C1` (stereo not given), for which, in [1] (at 61 µM (top of the series)), the activation is inactive: -0.05%. Also, the Potency result in [2] and in test [3] was “inactive” in each case.
Take `CNC(=S)S`: the activation in test [1] (at 61 µM (top of the series)) is inactive: -0.253% and inactive: -0.282%. Besides, the Potency result in test [3] was “inactive”.
